Laboratory results from ChEMBL document CHEMBL1126629 (J Med Chem, 1993).

The chains behind the UniProt entries cited, without tags or fusion partners.
UniProt P31645, whole entry: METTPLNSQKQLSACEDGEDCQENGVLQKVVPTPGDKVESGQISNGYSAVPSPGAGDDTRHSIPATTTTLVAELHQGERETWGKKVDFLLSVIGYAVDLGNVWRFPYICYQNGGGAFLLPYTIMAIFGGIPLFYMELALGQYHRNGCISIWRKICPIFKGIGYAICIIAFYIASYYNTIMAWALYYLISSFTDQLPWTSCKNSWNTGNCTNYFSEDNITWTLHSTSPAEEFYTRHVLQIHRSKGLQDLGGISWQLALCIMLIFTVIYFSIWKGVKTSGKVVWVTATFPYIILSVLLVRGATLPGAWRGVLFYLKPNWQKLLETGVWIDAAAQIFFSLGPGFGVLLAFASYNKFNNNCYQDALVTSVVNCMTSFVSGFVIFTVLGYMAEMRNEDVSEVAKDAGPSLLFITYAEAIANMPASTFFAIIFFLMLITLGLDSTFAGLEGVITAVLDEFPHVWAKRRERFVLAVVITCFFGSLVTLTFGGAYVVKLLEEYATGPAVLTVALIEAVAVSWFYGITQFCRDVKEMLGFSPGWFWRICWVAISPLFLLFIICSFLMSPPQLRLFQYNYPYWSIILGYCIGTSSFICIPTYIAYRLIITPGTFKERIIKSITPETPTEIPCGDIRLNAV

Molecular target: Sodium-dependent serotonin transporter (Homo sapiens, UniProt P31645)
Test: Ability to inhibit [3H]citalopram binding to serotonin transporter in cynomolgus monkey striatum
Type: tissue-based, Cercopithecidae
Details: target entry is the homologue from another species

**Q.** Which IC50 does the source give for `COC(=O)C1C(c2ccc(Cl)cc2)CC2CCC1N2C` (stereo unspecified) here?
**A.** 5.87 nM
